Literature values in patent US20220257540A1, “COMPOSITIONS AND METHODS FOR TREATMENT OF HEPATITIS B VIRUS INFECTION” (ANHUI RONGHANG BIOTECH DEVELOPMENT CO., LTD., priority 2019, published 2022).
Read-outs that look alike come from different tables or passages of the source.

Conditions: cited from earlier work

COc1cc2c(c(OC)c1OC)-c1ccc(OC)c(=O)cc1[C@@H](NC(C)=O)CC2 [Colchicine, N [5,6,7,9-tetrahydro-1,2,3,10-tetratmethoxy 9-oxobenzo[a]heptalen-7-yl], (S)-acetamide]
outcome of overdose (ingested from 0.5 to 0.8 mg/kg): more severe adverse reactions, including myelosuppression | outcome of overdose (ingested less than 0.5 mg/kg): survived
